Earlier results, collected in patent US9376395B2 (priority 2011, dated 2016).

Conditions: cited from earlier work

SMILES: NC(CO)(CO)CO [Tris]
- pKa: 8.30
